The record followed here is PubChem BioAssay AID438 (Columbia University Molecular Screening Center, 2006).

SMILES strings stand for the structures. Only a part is listed here, and it is no random draw. Activity calls are given as the source filed them.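 The calls were made as follows: active = inhibition above 20% together with a positive visual image hit; inconclusive = visual image hit but inhibition not above 20%; inactive = no visual image hit.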

The experiment in a line: inhibitors of TNFa-induced NFkB p65 translocation, primary screen, imaging, HUVEC, MLSMR starter and 10KST1 sets (AID 438).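 Also: compound added about 3h40 before a 20 min TNFalpha stimulation; signal is the nuclear over cytoplasmic p65 intensity ratio per well.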 The following applies: HUVEC TNFa-induced p65 nuclear translocation, at 2 µM, active compounds read high, 0% TNFa-plus-vehicle, 100% no-TNFa wells.
With `Fc1ccccc1NC1CCN(Cc2ccccc2)CC1`, the inhibition was inactive: -1.7%.
